Assay results published in PubChem BioAssay AID504357 (The Scripps Research Institute Molecular Screening Center, 2011).
Several values for one entry are separate records, joined by “and”; a condition that tells them apart may be missing. Identical values can stand only once. The entries are a selection whose mix differs from that of the whole data set. Activity calls are given as the source filed them. Cut-off read from the data, not from the text of the source: active = inhibition above about 22% (passing the limit was not always enough); inactive = the rest.

The chains behind the UniProt entries cited, without tags or fusion partners.
UniProt P35372, whole entry, looked up: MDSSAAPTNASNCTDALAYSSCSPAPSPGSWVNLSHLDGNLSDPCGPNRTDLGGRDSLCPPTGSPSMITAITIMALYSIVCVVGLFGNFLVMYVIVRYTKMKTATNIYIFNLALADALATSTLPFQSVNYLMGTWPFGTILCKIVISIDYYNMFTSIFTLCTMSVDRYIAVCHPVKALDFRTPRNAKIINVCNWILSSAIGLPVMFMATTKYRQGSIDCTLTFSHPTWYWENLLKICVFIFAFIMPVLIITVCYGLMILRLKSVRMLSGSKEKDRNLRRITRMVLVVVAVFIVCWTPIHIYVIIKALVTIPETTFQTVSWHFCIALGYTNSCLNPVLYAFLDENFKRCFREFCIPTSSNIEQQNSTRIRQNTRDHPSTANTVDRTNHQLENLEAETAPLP
UniProt P41143, whole entry, looked up: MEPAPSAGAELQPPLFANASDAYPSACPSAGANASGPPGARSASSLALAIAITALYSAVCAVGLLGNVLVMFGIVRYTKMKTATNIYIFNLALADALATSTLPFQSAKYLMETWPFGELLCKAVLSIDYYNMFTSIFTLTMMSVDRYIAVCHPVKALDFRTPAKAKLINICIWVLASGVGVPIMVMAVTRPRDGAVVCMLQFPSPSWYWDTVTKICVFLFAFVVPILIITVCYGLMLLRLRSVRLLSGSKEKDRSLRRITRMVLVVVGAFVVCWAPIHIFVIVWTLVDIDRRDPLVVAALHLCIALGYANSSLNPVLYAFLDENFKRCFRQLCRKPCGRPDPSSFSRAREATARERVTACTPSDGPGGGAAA

Biological target: Mu-type opioid receptor (Homo sapiens) + Delta-type opioid receptor (Homo sapiens) (UniProt P35372+P41143)
Test: inverse agonists of MOR-DOR heterodimerization, primary screen, cell-based, luminescence (AID 504357);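 note: 0% = cells with DMSO and 100% = wells without cells with DMSO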
Details: cell-based MOR-DOR heterodimer luminescence, inverse agonism; at 9.3 µM; hits give high values

Row | SMILES | inhibition
1 | Cc1ccc(CNC(=O)Cn2cnc3c(OCc4ccccc4)ncnc32)o1 | inactive: 14%
2 | CN(c1ccccc1)S(=O)(=O)c1cccc(NC(=O)Cn2cnc3c2c(=O)n(C)c(=O)n3C)c1 | inactive: -0.08%
3 | COc1cc(NC(=O)[C@@H](NC(=O)N2CCn3c2nc2ccccc23)C(C)C)cc(OC)c1 | inactive: 14.4%
4 | Nc1nonc1-c1nc2ccccc2n1CC(=O)N1CCN(c2ccc(F)cc2)CC1 | inactive: -25.7%
5 | Cc1cc2ncn(C3CC(=O)N(Cc4ccccc4)C3=O)c2cc1C (centres undefined) | inactive: -9.65%
6 | COc1cc(NC(=O)Cn2cnc3c(NCc4ccccc4)ncnc32)cc(OC)c1OC | inactive: 10.9%
7 | O=[N+]([O-])c1cc(Oc2ccc([N+](=O)[O-])cc2C(F)(F)F)cc([N+](=O)[O-])c1 | inactive: -97.4%
8 | O=C(Cn1cnc2c(OCc3ccccc3)ncnc21)NCc1ccccn1 | inactive: 3.97%
9 | Cn1c(=O)c2ncn(CC(=O)Nc3cccc(-c4nc5ccccc5s4)c3)c2n(C)c1=O | inactive: 5.64%
10 | c1ccc2c(c1)nc1n2CCN1CCNC1CCCCC1 | inactive: 16.8%
11 | CN(C)C(=O)Cn1c(SCC(=O)NCc2ccc3c(c2)OCO3)nc2ccccc21 | inactive: 4.66%
12 | COc1ccc(N/C(=N/P(=O)(N2CCOCC2)N2CCOCC2)N2CCOCC2)cc1 | inactive: 15.1%
13 | CCN(CC)S(=O)(=O)c1ccc(OC)c(NC(=O)Cn2cnc3c2c(=O)n(C)c(=O)n3C)c1 | inactive: 13.5%
14 | Brc1ccc(CNc2nc3ccccc3n2CCN2CCCCC2)cc1 | inactive: -15.3%
15 | COc1ccc(/C=N/NC(=O)Cn2c(Cc3ccc(OC)c(OC)c3)nc3ccccc32)cc1 | inactive: -0.54%
16 | COC(=O)[C@H](CCSC)NC(=O)Cn1cnc2c(NCc3ccccc3)ncnc21 | inactive: 9.69%
17 | Cc1ccc(OP(=O)(Nc2ccc([N+](=O)[O-])cn2)Oc2ccc(C)cc2)cc1 | inactive: 11.6%
18 | Fc1ccc2c(c1)nnn2C1CCN(Cc2ccccc2)CC1 | inactive: -1.84%
19 | CN(C)CCn1cnc2c1c(=O)n(C)c(=O)n2C | inactive: 8.27%
20 | CCOC(=O)Cn1c(=O)c2c(nc3n2CCN3Cc2ccccc2)n(C)c1=O | inactive: 5.44%
21 | Cn1c(=O)c2c(nc(N3CCOCC3)n2CCNC2=NCCC2)n(C)c1=O | inactive: 18.2%
22 | O=C(Cn1c(C(F)(F)F)nc2ccccc21)N/N=C/c1ccco1 | inactive: 10.8%
23 | COc1ccc(S(=O)(=O)N2CCCCC2)cc1NC(=O)Cn1cnc2c1c(=O)n(C)c(=O)n2C | inactive: 11.1%

Row | SMILES | inhibition
24 | COc1ccc(CCNC(=O)[C@H](CCSC)NC(=O)N2CCn3c2nc2ccccc23)cc1OC | inactive: 11.5%
25 | CSc1nc(N)nc2c1ncn2CC(=O)N[C@H](C)c1cccc2ccccc12 | inactive: 3.45%
26 | Cc1ccc2nc3c(c(C)c2c1)CC(C(Cl)Cl)S3 (centres undefined) | inactive: 5.99%
27 | CN1CCC(N(C)c2nc(-c3ccc([N+](=O)[O-])cc3)nc3ccccc23)CC1 | inactive: -26.3%
28 | O=C(Nc1ccc(F)cc1)N1CCn2c(nc3ccccc32)C1 | inactive: 2.72%
29 | C[C@H](NC(=O)N1CCn2c1nc1ccccc12)C(=O)NCc1ccco1 | inactive: 3.38%
30 | CC(C)CN(C(=O)Cn1c(Cl)nc2c1c(=O)n(C)c(=O)n2C)C1CCS(=O)(=O)C1 (centres undefined) | inactive: 13.4%
31 | COc1ccc(NC(=O)Cn2c(NCC(C)O)nc3ccccc32)cc1Cl (centres undefined) | inactive: 18.9%
32 | O=C(Cn1c2[n+](c3ccc(C(F)(F)F)cc31)CCCCC2)Nc1ccc(Br)cc1 | inactive: 1.14%
33 | CC(O)c1nc2ccccc2n1CC(=O)Nc1ccc(F)cc1Cl (centres undefined) | inactive: 3.26%
34 | N=c1n(CCCOc2ccc(Br)cc2)c2ccccc2n1CC(N)=O | inactive: 8.88%
35 | Cc1ccc2c(c1)C1CN(C)CCC1N2S(=O)(=O)c1ccccc1F (centres undefined) | inactive: 7.75%
36 | O=C(NCc1ccccc1)N1CCn2c(nc3ccccc32)C1 | inactive: 11.4%
37 | CCN(CC)CCn1c(NCc2ccc3c(c2)OCO3)nc2ccccc21 | inactive: -0.23%
38 | Cc1ccccc1NC(=O)Cn1c(=O)n(C)c2ccccc21 | inactive: -3.66%
39 | Cc1ccccc1OCC(O)Cn1c(=N)n(CCN2CCOCC2)c2ccccc21 (centres undefined) | inactive: 3.19% and inactive: 5.27%
40 | O=C1Nc2ccccc2C12Nc1ccccc1-c1nc3ccccc3n12 (centres undefined) | inactive: 8.8%
41 | CC(NC(=O)[C@H](C)NC(=O)N1CCn2c1nc1ccccc12)c1ccccc1 (some centres undefined) | inactive: 15%
42 | O=[N+]([O-])c1ccc(-c2cc([N+](=O)[O-])c(O)c([N+](=O)[O-])c2)cc1 | inactive: 14.4%
43 | Cc1ccc(S(=O)(=O)Nc2ccc3c(c2)nc2n3CCN(Cc3ccccc3)C2)cc1 | inactive: 0.43%
44 | Cn1c(=O)c2c(ncn2CC(=O)N/N=C/C(Br)=C/c2ccccc2)n(C)c1=O | inactive: 3.92%
45 | Cc1ccc(SCc2nc3ccccc3n2CC(=O)Nc2c(C)cccc2C)cc1 | inactive: -7.94%
46 | CN1CCN(c2nc3c(c(=O)[nH]c(=O)n3C)n2CC(N)=O)CC1 | inactive: 18.6%

Row | SMILES | inhibition
47 | CSc1nc2ccccc2n1CC(=O)Nc1c(C)cccc1C | inactive: -2.17%
48 | O=[As](O)(c1ccc(O)cc1)c1ccccc1O | inactive: 10%
49 | COc1ccc(NC(=O)N2CCn3c2nc2ccccc23)cc1 | inactive: -1.15%
50 | C[As](=O)(O)c1cccc(C(=O)O)c1 | inactive: 17.9%
51 | Cn1c(=O)c2c(ncn2CC(=O)Nc2nc(-c3ccccc3Cl)cs2)n(C)c1=O | inactive: -6.5%
52 | O=C(Cn1c2[n+](c3ccc(C(F)(F)F)cc31)CCCCC2)Nc1c(F)cccc1F | inactive: -7.77%
53 | COC(=O)[C@H](CC(C)C)NC(=O)Cn1cnc2c(SC)nc(N)nc21 | inactive: 10.2%
54 | CC1c2nc3ccccc3n2C(CC(=O)NCCCN2CCOCC2)C(=O)N1Cc1ccccc1 (centres undefined) | inactive: 8.49%
55 | COc1ccc(CCNC(=O)[C@@H](NC(=O)N2CCn3c2nc2ccccc23)C(C)C)cc1OC | inactive: 5.58%
56 | O=[N+]([O-])c1cc([N+](=O)[O-])c(-c2ccn[nH]2)s1 | inactive: -53.3%
57 | O=C(Cn1c(-c2ccccn2)nc2ccccc21)NCCN1CCOCC1 | inactive: -1.17%
58 | O=C(Cn1cnc2c(NCc3ccccc3)ncnc21)NCCCc1ccccc1 | inactive: 12.2%
59 | COc1cc(NC(=O)Cn2cnc3c(OCc4ccccc4)ncnc32)cc(OC)c1OC | inactive: 2.96%
60 | O=C(CCNC(=O)N1CCn2c1nc1ccccc12)NCc1ccc(F)cc1 | inactive: 5.43%
61 | O=C(Nc1nc2ccccc2n1CCN1CCOCC1)c1cn(-c2ccccc2)nc1-c1ccccc1 | inactive: 10.5%
62 | O=C(OC1CN2CCC1CC2)c1cccc2[nH]cnc12 (centres undefined) | inactive: 7.15%
63 | C=C(C)Cn1c(=O)c2c(nc3n2CCN3c2cccc(Cl)c2C)n(C)c1=O | inactive: 4.96%
64 | CCN(CC)C(=S)SC(NC=O)C(Cl)(Cl)Cl (centres undefined) | inactive: -6.3%
65 | C[C@H](NC(=O)N1CCn2c1nc1ccccc12)C(=O)NC1CC1 | inactive: 5.86%
66 | Cc1ccc(Cn2nnnc2CN2CCC(n3nnc4cc(C)ccc43)CC2)cc1 | inactive: -29.5%
67 | Cc1cccc(CSc2nc3ccncc3n2CC(=O)Nc2cc(C)cc(C)c2)c1 | inactive: 2.33%
68 | CC1CCN(C(=O)Cn2cnc3c2c(=O)n(C)c(=O)n3C)c2ccccc2S1 (centres undefined) | inactive: 6.97%
69 | Cn1c(=O)c2c(nc(CN3CCC(Cc4ccccc4)CC3)n2CCN2CCOCC2)n(C)c1=O | inactive: 0.76%

Row | SMILES | inhibition
70 | Cc1ccc(-c2csc(NCCn3c(C)nc4cc(C(F)(F)F)ccc43)n2)cc1 | inactive: -0.21%
71 | O=C(Cn1c(C(F)(F)F)nc2ccccc21)N1CCCC1 | inactive: 8.67%
72 | Cc1ccc(NC(=O)Cn2cnc3c(=O)n(C)c(=O)n(C)c32)c(C)c1 | inactive: -0.24%
73 | CCC(=O)Nc1cccc(C(=O)/C=C/c2ccc(F)cc2)c1 | inactive: 3.98%
74 | Cc1ccsc1/C=N/NC(=O)Cn1cnc2ccccc21 | inactive: 5.76%
75 | ClCCSc1nnc(-c2cccnc2)o1 | inactive: 14.1%
76 | Cc1nc2ccccc2n1CC(=O)NCCN1CCCC1 | inactive: 13%
77 | CC1(C)c2ccccc2N2CCC(=O)NC21/C=C/c1ccco1 (centres undefined) | inactive: 7.93%
78 | CCOC(=O)CC[C@H](NC(=O)Cn1cnc2c(NCc3ccccc3)ncnc21)C(=O)OCC | inactive: 13.9%
79 | COc1ccccc1NC(=O)N1CCn2c(nc3ccccc32)C1 | inactive: -5.97%
80 | CCC(=O)Nc1nc2ccccc2n1CCN(CC)CC | inactive: -5.64%
81 | N=c1n(CCN2CCCCC2)c2ccccc2n1CC(=O)c1cccc([N+](=O)[O-])c1 | inactive: -29.3%
82 | Cc1ccc2c(c1)C1CN(C)CCC1N2C(=O)CCCN1C(=O)c2cccc3cccc(c23)C1=O (centres undefined) | inactive: 9.48%
83 | CC(C)NC(=O)Cn1c(SCC(=O)c2ccc(F)cc2)nc2ccccc21 | inactive: 3.95%
84 | Cc1cc(C)c(CN2CCN(C(=O)Cn3cnc4c(NCc5ccccc5)ncnc43)CC2)c(C)c1 | inactive: -25.6%
85 | Cn1c(=O)c2c(ncn2CC(=O)N2CCN(c3cccc(Cl)c3)CC2)n(C)c1=O | inactive: 2.21%
86 | COC(=O)C1(C)COP(=O)(N2CCCCCC2)OC1 (centres undefined) | inactive: 0.92%
87 | CCC(C(=O)NC1CCCCC1)n1c(SCc2ccccc2F)nc2ccncc21 (centres undefined) | inactive: 11.4%
88 | CC(C)c1ccc(OP(=O)(Nc2ccccn2)Oc2ccccc2F)cc1 (centres undefined) | inactive: -2.87%
89 | c1csc(CNc2nc3ccccc3n2CCN2CCOCC2)c1 | inactive: 15.4%
